Where two headings read alike, the source gives them in different places.
Legend:
Assay type in all cases: cell-based
[1] = target: T1, rat brain voltage-gated K+ channel, Kv1.3 (Rattus norvegicus, UniProt P15384); test: Assay of K+ channel inhibition: two-electrode voltage clamp of Kv1.3 expressed in Xenopus oocytes; conditions: for IC50: rat Kv1.3 in Xenopus oocytes, about 22° C.
T1 construct: expressed in transfected cells; host or cells: Xenopus oocytes (cRNA injection; pAS18 vector, SP6 transcription; clone from Prof; O. Pongs)
Description: (§1) Assay on inhibitory activity of the peptides on K^+ channels was performed in the following manner. The gene of the rat brain voltage-gated K^+ channel, Kv1.3 (Stuhmer et al., EMBO J., 8, vol. 11, pp. 3235-3244, 1988), which was graciously contributed by Prof. O. Pongs (Institute für Neurale Signalverarbeitung, Hamburg, Germany) was inserted into pAS18 vector according to a conventional technique. This vector was treated with EcoRI and then the resultant clone was transcribed in vitro with SP6 RNA polymerase using a transcription kit (Stratagene Inc., USA). The cRNA obtained was injected into Xenopus oocytes 16-72 hr prior to electrophysiological experiments.
(§2) The oocytes which had been expressed the Kv1.3 gene were added to a 100 μl-chamber filled with an ND96 solution (0.3 mM CaCl2, 1 mM MgCl2, 2 mM KCl and 96 mM NaCl in 5 mM Hepes buffer, pH 7.6) supplemented with 50 mg/ml of bovine serum albumin (BSA), and the ND96 solution was continuously perfused through reservoirs at a flow rate of 4 ml/min. The sample to be tested was separately dissolved to an ND96 solution and then added to the chamber by perfusion through a reservoir. The switching from one reservoir to another for each experiment was performed by means of Teflon valves. All measurements were made at room temperature (about 22° C.).
The oocytes were impaled by two microelectrodes filled with 3M KCl (internal resistance: 0.5-2 MΩ) and voltage-clamped using Axoclamp-2 two electrode voltage-clamp amplifier (Axon Instruments, Inc.) in a mode where the voltage of the chamber was clamped at 0V. Currents were low-pass filtered at 1 kHz using a 8 pole-Bessel filter (CyberAmp, Axon Instruments Inc.; −3dB), sampled and digitized at 10 kHz using Digidate 1200 Interface (Axon Instruments Inc.), and then saved the data to a photomagnetic disk for subsequent off-line analysis. Programming and recording of the potential and analysis of the saved data were performed by running Pclamp software (Axon Instruments Inc.) in a Compaq PC computer. The measurement was conducted with a holding potential of −80 mV and a holding current of not more than −40 nA.
Inhibitory activity of HsTX1 of the present invention on Kv1.3 channels was examined by measuring the concentration-dependent inhibition of the voltage-gated outward current on the voltage-gated K^+ channels expressed in Xenopus oocyte system. […] Transient perfusion with 100 pM of HsTX1 followed by perfusion without any peptide like the control caused over 85% recovery of K^+ current over time.

Protein sequences, listed by entry. Tags and fused reporters are not part of them.
UniProt P15384, whole entry: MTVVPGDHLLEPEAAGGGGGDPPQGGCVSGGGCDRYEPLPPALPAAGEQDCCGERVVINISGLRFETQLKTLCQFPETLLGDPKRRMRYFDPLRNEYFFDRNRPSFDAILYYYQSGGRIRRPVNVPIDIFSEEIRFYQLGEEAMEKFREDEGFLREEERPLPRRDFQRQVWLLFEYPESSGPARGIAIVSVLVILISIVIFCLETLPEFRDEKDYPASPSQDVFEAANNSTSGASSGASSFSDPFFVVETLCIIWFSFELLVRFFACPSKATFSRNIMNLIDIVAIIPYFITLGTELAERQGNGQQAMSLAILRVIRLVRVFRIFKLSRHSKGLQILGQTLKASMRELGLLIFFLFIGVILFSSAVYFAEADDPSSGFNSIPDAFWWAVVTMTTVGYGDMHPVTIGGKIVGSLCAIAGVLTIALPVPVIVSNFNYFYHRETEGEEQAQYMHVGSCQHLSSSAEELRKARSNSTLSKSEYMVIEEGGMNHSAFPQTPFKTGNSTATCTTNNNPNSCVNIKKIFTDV
UniProt P17659, whole entry: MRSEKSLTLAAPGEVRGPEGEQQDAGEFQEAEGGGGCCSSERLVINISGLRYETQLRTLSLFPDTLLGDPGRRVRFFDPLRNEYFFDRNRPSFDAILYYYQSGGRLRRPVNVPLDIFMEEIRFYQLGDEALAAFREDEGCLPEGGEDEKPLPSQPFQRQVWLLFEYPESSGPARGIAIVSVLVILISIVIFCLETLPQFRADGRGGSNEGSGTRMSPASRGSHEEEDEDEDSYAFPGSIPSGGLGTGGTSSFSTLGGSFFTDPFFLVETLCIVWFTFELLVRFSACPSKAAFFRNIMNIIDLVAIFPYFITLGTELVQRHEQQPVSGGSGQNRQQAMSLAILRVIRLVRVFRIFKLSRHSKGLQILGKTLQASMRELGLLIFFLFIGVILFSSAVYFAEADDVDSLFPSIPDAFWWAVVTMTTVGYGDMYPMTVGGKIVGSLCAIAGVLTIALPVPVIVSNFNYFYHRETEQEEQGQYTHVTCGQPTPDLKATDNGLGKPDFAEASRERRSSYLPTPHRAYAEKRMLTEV
UniProt P10499, whole entry: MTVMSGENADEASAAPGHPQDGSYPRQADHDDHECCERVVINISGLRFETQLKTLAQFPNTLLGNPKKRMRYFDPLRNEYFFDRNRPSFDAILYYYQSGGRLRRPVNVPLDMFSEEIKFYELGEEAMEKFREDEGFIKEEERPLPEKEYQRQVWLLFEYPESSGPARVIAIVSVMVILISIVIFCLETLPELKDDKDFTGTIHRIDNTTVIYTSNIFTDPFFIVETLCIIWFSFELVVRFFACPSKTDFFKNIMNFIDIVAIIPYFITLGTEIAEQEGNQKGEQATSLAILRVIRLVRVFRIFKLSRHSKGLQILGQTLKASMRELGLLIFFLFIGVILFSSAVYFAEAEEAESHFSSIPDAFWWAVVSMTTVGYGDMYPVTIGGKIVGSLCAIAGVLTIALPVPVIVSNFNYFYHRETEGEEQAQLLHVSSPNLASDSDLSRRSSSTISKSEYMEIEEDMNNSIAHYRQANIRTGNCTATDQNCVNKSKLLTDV

[2] = system: IL-2 production by human peripheral blood T cells; test: IL-2 production by human peripheral blood T cells stimulated with PMA and ionomycin (IL-2 ELISA); conditions: for inhibition rate against IL-2 production: 20 hr
Description: Inhibitory activity of HsTX1 on IL-2 production by activated T cells was examined in the following manner. Mononuclear leukocytes were isolated from heparinized peripheral blood from a normal donor by a centrifugation technique with a mono-poly resolving medium (Dainippon Pharmaceuticals Co., Ltd.), and then applied to a nylon wool column. The column was incubated at 37° C. for 30 min and then non-adherent cells were isolated therefrom. The purified T-cells obtained were suspended in RPMI 1640 medium supplemented with 10% inactivated fetal calf serum, 100 U/ml of penicillin and 100 μg/ml of streptomycin. This suspension was plated onto a 96-well flat-bottom plate in a final concentration of 1×1 ^6 cells/ml, 1 ng/ml of phorbol myristate acetate (PMA) and 250 ng/ml of ionomycin were further added thereto as stimulators, and the plate was cultivated in a 5% CO2 gas incubator at 37° C.
At the time of starting of cultivation, HsTX1 was added to each well in concentrations of 0.1, 1, 10 and 100 nM, respectively, to the final volume for each well of 200 μl. After 20 hr, the culture supernatant was collected and then determined for IL-2 concentration therein using a human IL-2 ELISA kit (Endogen).

[3] = target: T2, Kv1.6 (subtype of rat brain voltage-gated K+ channel) (Rattus norvegicus, UniProt P17659); test: Activity on other voltage-gated K+ channels: Kv1.6 expressed in Xenopus oocytes
T2 construct: expressed in transfected cells; host or cells: Xenopus oocytes
Description: as §1
as §2, with “C.). […]” for “C.).”

[4] = target: T3, Kv1.1 (subtype of rat brain voltage-gated K+ channel) (Rattus norvegicus, UniProt P10499); test: Activity on other voltage-gated K+ channels: Kv1.1 expressed in Xenopus oocytes
T3 construct: expressed in transfected cells; host or cells: Xenopus oocytes
Description: as §1
as §2, with “C.). […]” for “C.).”

Compound | inhibition of voltage-gated outward current ([1]; 10 pM peptide, all voltages tested, vs control without peptide) [%] | IC50 ([1]; 50% blocking/inhibition concentration (IC50) on Kv1.3 channels) [nM] | potency on K+ channels relative to Pi1 (times stronger) ([1]; compared with scorpion toxin Pi1) | inhibition rate against IL-2 production ([2]; 0.1 nM) [%] | inhibition rate against IL-2 production ([2]; 1 nM) [%] | inhibition rate against IL-2 production ([2]; 10 nM) [%] | inhibition rate against IL-2 production ([2]; 100 nM) [%] | inhibition of IL-2 production, significance ([2]; 0.1, 1, 10 and 100 nM, Dunnett's test) | IC50 ([1]; read-out: 50% blocking/inhibition concentration (IC50) on Kv1.3 channels) [nM] | activity on Kv1.6 relative to Kv1.3 ([3]; IC50 comparison with Kv1.3) | IC50 ([3]; rat Kv1.6 in Xenopus oocytes) [nM] | activity on Kv1.1 relative to Kv1.3 ([4]; IC50 comparison with Kv1.3) | IC50 ([4]; rat Kv1.1 in Xenopus oocytes) [nM]
CSCC[C@@H]1NC(=O)[C@@H]2CSSC[C@H](NC(=O)[C@H](CO)NC(=O)[C@H](C)N)C(=O)N[C@@H](CCCNC(=N)N)C(=O)N[C@@H]([C@@H](C)O)C(=O)N3CCC[C@H]3C(=O)N[C@@H](CCCCN)C(=O)N[C@@H](CC(=O)O)C(=O)N[C@H]3CSSC[C@H](NC(=O)[C@H](CCCCN)NC(=O)[C@H](CCCNC(=N)N)NC(=O)[C@H](CC(N)=O)NC1=O)C(=O)N[C@@H](CCCCN)C(=O)N[C@H]1CSSC[C@H](NC(=O)[C@@H]4CCCN4C(=O)[C@H](CC(=O)O)NC(=O)[C@H](C)NC3=O)C(=O)N[C@@H](CCCNC(=N)N)C(=O)N[C@@H](CCCCN)C(=O)N[C@@H](CCC(=O)O)C(=O)N[C@@H]([C@@H](C)O)C(=O)NCC(=O)N[C@@H](CSSC[C@@H](C(N)=O)NC(=O)[C@H](CCCNC(=N)N)NC(=O)[C@H](CC(N)=O)NC1=O)C(=O)N1CCC[C@H]1C(=O)N[C@@H](Cc1ccc(O)cc1)C(=O)NCC(=O)N[C@@H](CCCCN)C(=O)N2 [HsTX1] | ~50 | 0.012 | about 800 times | 28.6 | 45.7 | 46.0 | 46.7 | significantly inhibited |  |  |  |  | 
CSCC[C@@H]1NC(=O)[C@@H]2CSSC[C@H](NC(=O)[C@H](CO)NC(=O)[C@H](C)N)C(=O)N[C@@H](CCCNC(=N)N)C(=O)N[C@@H]([C@@H](C)O)C(=O)N3CCC[C@H]3C(=O)N[C@@H](CCCCN)C(=O)N[C@@H](CC(=O)O)C(=O)N[C@H]3CSSC[C@H](NC(=O)[C@H](CCCCN)NC(=O)[C@H](CCCNC(=N)N)NC(=O)[C@H](CC(N)=O)NC1=O)C(=O)N[C@@H](CCCCN)C(=O)N[C@H]1CSSC[C@H](NC(=O)[C@@H]4CCCN4C(=O)[C@H](CC(=O)O)NC(=O)[C@H](C)NC3=O)C(=O)N[C@@H](CCCNC(=N)N)C(=O)N[C@@H](CCCCN)C(=O)N[C@@H](CCC(=O)O)C(=O)N[C@@H]([C@@H](C)O)C(=O)NCC(=O)N[C@@H](CSSC[C@@H](C(N)=O)NC(=O)[C@H](CCCNC(=N)N)NC(=O)[C@H](CC(N)=O)NC1=O)C(=O)N1CCC[C@H]1C(=O)N[C@@H](Cc1ccc(O)cc1)C(=O)NCC(=O)N[C@@H](CCCCN)C(=O)N2 [synthetic HsTX1] |  |  |  |  |  |  |  |  | ~0.013 | about one-thirty | ~0.3 | about one-thirty | ~0.3

Reference: US6689749B1, “Neuropeptides originating in scorpion” (Suntory Limited, priority 1996, dated 2004)
